Reference: patent publication US20090325867A1, “RECEPTOR-SPECIFIC TUMOUR NECROSIS FACTOR-RELATED APOPTOSIS-INDUCING LIGAND (TRAIL) VARIANTS” (MEDICAL RESEARCH COUNCIL, priority 2005, published 2009)

System: primary MCL cells
Experiment: Apoptosis in freshly isolated primary MCL cells with or without depsipeptide pre-treatment
Assay type: cell-based, human
Conditions: pre-treatment 16 h with depsipeptide (5 nM), depsipeptide alone 35.4±5%
Procedure: Ramos, an Epstein-Barr virus-negative Burkitt's lymphoma cell line, and Jurkat T cells (clone E6-1) were cultured as described (MacFarlane et al (2005 Cell Death and Differentiation vol 12 pages 773-782)). Blood samples were obtained from CLL patients, with patient consent and local ethical committee approval and CLL cells purified as described (MacFarlane et al (2002 Oncogene 21, 6809-6818). Cells were incubated for 16 h with depsipeptide (10 nM), provided by Dr. E. Sausville (NCI, USA). Cells were then cultured for a further 6 h with either HGSETR1 or HGS-ETR2, agonistic mAbs to TRAIL-R1 or -R2, respectively (Human Genome Sciences, Rockville, Md.), His-TRAIL-LE (a recombinant TRAIL with low endotoxin—Alexis Corporation, Nottingham, UK), His-TRAIL, a similar form of human recombinant TRAIL (MacFarlane et al (1997 J Biol Chem 272, 25417-25420)) but not further purified to reduce endotoxin levels or a mutant form of His-TRAIL as described (MacFarlane et al., 2005 ibid.). […] Samples were either analyzed immediately for apoptosis or stored at −80° C. for subsequent Western blotting. […]
Apoptosis was quantified by phosphatidylserine (PS) externalization in the presence of propidium iodide as described (MacFarlane et al., 2002 ibid.). Samples for Western blot analysis were prepared and caspase processing detected as described (Inoue et al., 2004 ibid.; MacFarlane et al., 2005 ibid.). […]

B1: TRAIL.R2-6: His-TRAIL (95-281) with 189Gln, 191Lys, 193Arg, 264Arg, 266Leu, 267Gln; TRAIL-R2 selective mutant (protein)
chain: TSEETISTVQEKQQNISPLVRERGPQRVAAHITGTRGRSNTLSSPNSKNEKALGRKINSWESSRSGHSFLSNLHLRNGELVIHEKGFYYIYSQTQFKFREEIKENTKNDKQMVQYIYKYTSYPDPILLMKSARNSCWSKDAEYGLYSIYQGGIFELKENDRIFVSVTNERLLQMDHEASFFGAFLVG
modifications: biotin (site not stated) in the DISC analysis only; not biotinylated in the apoptosis assays
For B1, the “apoptosis, ligand or antibody after depsipeptide pre-treatment” value was 35.5±3.1%.
